## AlphaSeq binding of Ab-14 light chain variants to a spike HR2 peptide

Source: Li et al. 2023 (doi:10.1038/s41467-023-39022-2), MIT Lincoln Laboratory and A-Alpha Bio; data file from the FLAb repository.

Antigen: PDVDLGDISGINAS, a 14-residue peptide of the SARS-CoV-2 spike HR2 region.

Parent scFv Ab-14: VH joined to VL by the linker GGGGSGGGGSGGGGS. Changes lie in the light chain CDRs alone.
VH: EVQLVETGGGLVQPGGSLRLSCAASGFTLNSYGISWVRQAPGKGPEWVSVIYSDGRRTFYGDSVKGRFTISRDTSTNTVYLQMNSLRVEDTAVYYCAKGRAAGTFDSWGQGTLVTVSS
VL: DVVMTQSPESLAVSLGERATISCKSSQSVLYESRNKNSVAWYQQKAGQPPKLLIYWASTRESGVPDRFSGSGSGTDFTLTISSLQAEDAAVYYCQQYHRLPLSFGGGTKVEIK

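The starting antibody came from a phage panning campaign against this peptide. This is the validation round: designs drawn from the data on random variants, tested in the same kind of assay. Their group label is 14L_GP_Gen (GP: Gaussian process model; Gen: genetic algorithm; a sequence that several methods proposed may carry one label only). The scFvs were displayed on barcoded MATa yeast, the peptide on MATalpha yeast. Pairs that bind mate more often; barcode pairs of the diploids are counted by sequencing. Read counts were normalised to the haploid input and turned into Kd by a linear fit to BCL2-family pairs of known affinity, for each replicate. There are six technical replicates.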

Positions count from residue 1 of the parent VL; S25L puts L in place of S. Values are log10 of the apparent Kd in nM; lower means stronger binding. Where no diploid with the target was found in that replicate, the entry reads "n.d.": below detection, most likely a poor binder, though not proof of it. In the paper, a design with two or fewer of six values counts as a poor binder. The parent sequence was in this pool as ten entries: three were never detected, three once, and four in most replicates, with averages from 0.34 to 2.37. A sequence measured in both rounds can read differently, since the two assays cover different ranges. Background: pairings of all light chain designs with three empty control strains gave a value in 4% of cases (median 2.64, 5th percentile 1.59). Values in that range, when seen in few replicates, are hard to tell from nonspecific mating. For each scFv, signals with the empty controls are counted beside the result, with their mean in brackets.

changes	log10 Kd (nM) by replicate	signal with controls
S25L S26E V29M W56N	-0.19 / -0.16 / -0.38 / -0.42 / -0.29 / -0.14	1/18 (2.49)
S25L S26E L30E W56N E61L	0.07 / 0.18 / -0.05 / -0.08 / -0.10 / 0.25	4/18 (3.20)
S25M S26P V29Y W56N	-0.07 / -0.14 / -0.24 / -0.45 / -0.40 / -0.28	1/18 (1.52)
S25L Q27D W56G	-0.15 / -0.34 / -0.24 / -0.37 / -0.31 / -0.25	3/18 (2.93)
S25L V29Q K36S W56N T59Q	-0.51 / -0.57 / -0.64 / -0.29 / -0.41 / -0.21	0/18
S25L S26M V29D W56E	0.62 / 0.48 / 0.24 / 0.26 / 0.08 / 0.69	1/18 (2.34)
S25L S38N W56S	-0.26 / -0.44 / -0.39 / -0.58 / -0.56 / -0.32	1/18 (1.95)
S25V S26Q V29E W56N T59L	0.18 / 0.25 / 0.13 / 0.00 / 0.15 / 0.04	0/18
S25L S26Q N35M W56N S62D	0.09 / -0.05 / -0.14 / -0.10 / -0.19 / -0.07	3/18 (2.97)
S25L S26M V29E W56E T59Q	-0.14 / 0.01 / -0.15 / -0.18 / -0.15 / 0.63	0/18
S25M S26Q V29W W56N E61M	-0.16 / -0.10 / -0.19 / -0.33 / -0.27 / -0.01	2/18 (2.43)
S25L S26M W56N E61M	0.27 / 0.11 / 0.08 / -0.03 / 0.07 / 0.04	4/18 (3.58)
S25F S26M W56N	0.24 / 0.26 / 0.14 / 0.22 / 0.15 / 0.44	0/18
S25L L30E N35Q W56N E61L	0.27 / 0.13 / 0.28 / -0.10 / 0.14 / 0.50	2/18 (2.93)
S25C V29D W56E	0.14 / 0.40 / 0.03 / 0.41 / 0.02 / 0.31	1/18 (1.70)
S25L V29F N35M W56N T59Q	0.00 / 0.16 / -0.12 / -0.03 / 0.43 / 0.06	0/18
S25L S26Q V29H W56D	0.37 / -0.14 / -0.28 / -0.08 / -0.37 / 0.11	1/18 (2.80)
S25L S26Q V29W N35M W56N T59Q	0.53 / 0.14 / 0.34 / -0.21 / -0.35 / 0.41	0/18
S25L S26Q W56G Q96A	0.09 / -0.13 / -0.05 / 0.38 / -0.04 / -0.01	0/18
V29E L30D W56E	1.37 / 0.46 / 1.23 / 1.07 / 0.21 / 0.99	0/18
S25L W56E T59Q S62Q	0.47 / 0.35 / 0.23 / 0.18 / 0.52 / 0.75	2/18 (3.07)
S25V S26Q W56N	0.37 / 0.23 / 0.08 / 0.19 / -0.04 / 0.31	3/18 (3.08)
S25V V29Q L30W W56N	0.36 / 0.40 / 0.09 / -0.03 / 0.10 / 0.46	1/18 (1.97)
S25V K36S W56E	-0.10 / -0.08 / -0.41 / -0.22 / -0.42 / -0.09	1/18 (1.66)
S25L S26Q S33D W56N T59Q	0.09 / -0.34 / -0.27 / -0.21 / -0.30 / -0.12	0/18
S25L V29Q S38N W56D	-0.20 / -0.31 / -0.44 / -0.41 / -0.42 / -0.32	1/18 (4.61)
V29E R34A W56N T59Q	1.98 / n.d. / n.d. / 1.33 / 0.93 / 0.90	0/18
S25L S26P V29Q W56N E61M	0.12 / -0.05 / 0.00 / -0.27 / -0.18 / 0.03	4/18 (3.55)
S25L V29H W56N S62M	0.09 / 0.07 / -0.16 / -0.44 / -0.05 / 0.23	1/18 (3.02)
S25M W56N	-0.13 / -0.24 / -0.32 / -0.37 / -0.36 / -0.23	1/18 (2.89)
S25L S26M V29M L30P W56N	1.24 / 1.04 / 1.05 / 0.76 / 0.88 / 1.38	1/18 (3.17)
S25V V29E W56N S103I	0.27 / 0.16 / -0.26 / 0.20 / 0.39 / 0.51	2/18 (3.15)
S25L S26D V29G W56E	0.00 / -0.09 / -0.08 / -0.23 / -0.41 / 0.05	0/18
S25L V29W L30G W56N	-0.61 / -0.15 / -0.11 / -0.43 / -0.33 / -0.07	0/18
S25L S26Q V29W L30E W56N T59Q E61L	0.17 / 0.02 / 0.08 / -0.12 / -0.18 / 0.11	1/18 (3.30)
S25L V29D W56N T59Q E61M	-0.16 / -0.32 / -0.41 / -0.36 / -0.27 / -0.21	0/18
S25V S26Q L30M W56E	0.60 / 0.63 / 0.39 / 0.19 / 0.25 / 0.61	2/18 (2.53)
S25L S26Q W56G E61S	0.02 / -0.13 / -0.27 / -0.33 / -0.19 / -0.02	2/18 (2.50)
S25L S26Q V29Q W56N	-0.13 / -0.03 / -0.01 / 0.01 / -0.13 / 0.15	0/18
S25L V29E W56N E61L S62D	0.36 / 0.07 / -0.06 / -0.18 / 0.01 / 0.37	1/18 (2.70)
S25L Q27M V29Q W56N T59Q	-0.01 / -0.10 / -0.36 / -0.59 / -0.21 / -0.22	1/18 (2.53)
S25L W56G S62D	0.42 / 0.29 / 0.24 / 0.31 / 0.42 / 0.19	1/18 (2.24)
S25L L30W S38N W56D	-0.18 / 0.41 / n.d. / -0.63 / -0.06 / n.d.	0/18